{"source": "paper PMC9530649", "about": "(Cancer Immunology Research, 2022)", "molecular_target": "native human LAG-3 (Homo sapiens, endogenous) (UniProt P18627)", "test": "flow cytometry on cells"}
{"substance": "relatlimab (antibody)", "values": [{"measurement": "EC50", "value": 0.11, "unit": "nM"}]}
